# Measurements taken from PubChem BioAssay (Tox21).
# By UniProt entry, the sequences of proteins in these tests, tags left out.
# UniProt P11712, whole entry, looked up: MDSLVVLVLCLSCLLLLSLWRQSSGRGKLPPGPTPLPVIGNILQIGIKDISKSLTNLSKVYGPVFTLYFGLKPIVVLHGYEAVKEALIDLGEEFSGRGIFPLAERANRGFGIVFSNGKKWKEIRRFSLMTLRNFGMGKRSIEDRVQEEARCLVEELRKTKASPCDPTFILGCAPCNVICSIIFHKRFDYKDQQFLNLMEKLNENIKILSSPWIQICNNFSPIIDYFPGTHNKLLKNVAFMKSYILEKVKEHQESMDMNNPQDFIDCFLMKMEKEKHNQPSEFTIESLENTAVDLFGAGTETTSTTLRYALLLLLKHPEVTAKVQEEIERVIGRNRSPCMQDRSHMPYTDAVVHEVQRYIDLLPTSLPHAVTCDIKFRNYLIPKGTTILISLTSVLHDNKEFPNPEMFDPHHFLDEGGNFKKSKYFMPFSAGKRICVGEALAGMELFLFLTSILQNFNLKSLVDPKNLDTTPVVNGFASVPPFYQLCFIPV
# Values joined by “and” are separate entries in the source; they are usually repeats but may differ in a detail not shown here. Identical values can stand only once. The list shows a part of the results, in another mix than the full data. Inconclusive results are not listed. Active and inactive are the calls of the source. The call rests on the fitted dose curve; in most records, active means well fitted inhibition curve with a large enough effect in the repeat runs; inconclusive means weak or mixed curves; inactive means no such curve, though single readings can be large or run the other way.
# Biological target: Cytochrome P450 2C9 (Homo sapiens) (UniProt P11712)
# Assay: Cytochrome P450 Family 2 Subfamily C Member 9 (CYP2C9) small molecule antagonists: luciferase reporter qHTS assay (AID 1671198); further: nearly all actives have a fitted effect of over 50% in size
# Details: P450-Glo CYP2C9 enzyme assay, luciferin luminescence; series mostly up to 115 µM
# Source text: U.S. Tox21 Program National Center for Advancing Translational Sciences [NCATS] U.S. Environmental Protection Agency [EPA] National Institutes of Environmental Health Sciences [NIEHS] National Toxicology Program [NTP] U.S. Food and Drug Administration [FDA] Tox21 Assay Overview: Cytochrome P450 (CYP) enzymes are membrane-bound hemeproteins that play a key role in metabolism of drugs and xenobiotics. Evaluation of the effect of chemicals on CYP isozymes is useful to minimize the adverse drug reactions and toxicities in drug development process. Tox21 chemicals were tested for their effect on CYP enzyme activities by using P450-Glo (TM) screening systems (Promega Corporation, Madison, WI). These systems provide a luminescent method containing proluciferin substrates and are converted to luciferin products by CYP isozymes. The luciferin products formed are detected with a luciferin detection reagent, and the amount of light produced is proportional to CYP activity. P450-Glo (TM) CYP2C9 screening system (Catalog. No. V9790) was used to detect the compounds that interfere in CYP2C9 activity.
# Tox21 Assay Protocol Summary: Two ul of enzyme-substrate mix was dispensed into medium binding white/solid 1536-well plates (Greiner Bio-One North America Inc., Monroe, NC) using a BioRaptr Flying Reagent Dispenser (FRD, Beckman Coulter, Brea, CA). […] The assay plates were incubated at room temperature for 10 min. Then 2 ul of NADPH regeneration solution was added to each well of the assay plates using an FRD and incubated at 37C for 1 h. The reaction was stopped by adding 4 ul of detection reagent using an FRD and after 20 min incubation at room temperature the luminescence signal was measured using a ViewLux plate reader (Perkin Elmer, Shelton, CT). Data were expressed as relative luminescence units.
# On the % scale 0 is the no-effect control and ±100 the full control effect; potency means the concentration at half of the fitted maximal effect.
SMILES,"activity change, negative = inhibition",Potency
CCC(C)(OOC(C)(C)C)OOC(C)(C)C,inactive: 4.4% [at 23.6 µM],
CN(C(=O)Cc1ccccc1)[C@H]1CC[C@@]2(CCCO2)C[C@@H]1N1CCCC1,,inactive
CN(C(=O)Cc1cccc2occc12)[C@H]1CC[C@@]2(CCCO2)C[C@@H]1N1CCCC1,,active: 39.7 µM
Cc1cc([N+](=O)[O-])c(O)c([N+](=O)[O-])c1,,active: 36 µM
O=[As]c1ccccc1 (stereo unspecified),,inactive
CCOC(=O)Cl,,inactive
O=C(Cl)Oc1ccccc1,,inactive
CN(C(=O)Cc1ccc(Cl)c(Cl)c1)[C@H]1CC[C@@]2(CCCO2)C[C@@H]1N1CCCC1,,inactive
CCCCCCCCCCCCCC[P+](CCCCCC)(CCCCCC)CCCCCC,,active: 20 µM
CCCCOP(OCCCC)OCCCC,,active: 39.9 µM
COP(=S)(Cl)OC,,active: 32 µM
CC(C)CCCCCCCOP(OCCCCCCCC(C)C)Oc1ccccc1,,active: 39.9 µM
O=[N+]([O-])c1ccc([N+](=O)[O-])cc1,,active: 31.7 µM
CCNC(C)Cc1ccc2c(c1)OCO2 (stereo unspecified),,inactive
CCCCO[P+](=O)OCCCC,,inactive
Cc1cc([N+](=O)[O-])cc([N+](=O)[O-])c1O,,active: 20 µM and active: 21.8 µM
O=P(Cl)(Cl)c1ccccc1,,inactive
ClP(Cl)c1ccccc1,,inactive
CCOP(=S)(CC)Sc1ccccc1 (stereo unspecified),,active: 5.62 µM
O=P(Cl)(Oc1ccccc1)Oc1ccccc1,,active: 39.9 µM
COC(=O)Cl,,inactive
